How the values were obtained:
Assay type in all cases: binding
Settings in all cases: Compound Concentration 10 µM
panel of 442 kinases [1] = target: T1, panel of 442 kinases (Homo sapiens, UniProt P36888)
T1 construct: purchased KINOMEscan
Excerpt: (§1) We assessed the selectivity of members of this scaffold using the KINOMEscan methodology across a near comprehensive panel of 442 kinases [[18,27]].

panel of 442 kinases [2] = target: T2, panel of 442 kinases (Homo sapiens, UniProt P50613)
T2 construct: purchased KINOMEscan
Excerpt: as §1

panel of 442 kinases [3] = target: T3, panel of 442 kinases (Homo sapiens, UniProt Q5S007)
T3 construct: purchased KINOMEscan
Excerpt: as §1

panel of 442 kinases [4] = target: T4, panel of 442 kinases (Homo sapiens, UniProt Q16832)
T4 construct: purchased KINOMEscan
Excerpt: as §1

panel of 442 kinases [5] = target: T5, panel of 442 kinases (Homo sapiens, UniProt P36888, D835H)
T5 construct: purchased KINOMEscan
Excerpt: as §1

panel of 442 kinases [6] = target: T6, panel of 442 kinases (Homo sapiens, UniProt P49840)
T6 construct: purchased KINOMEscan
Excerpt: as §1

panel of 442 kinases [7] = target: T7, panel of 442 kinases (Homo sapiens, UniProt P27448)
T7 construct: purchased KINOMEscan
Excerpt: as §1

panel of 442 kinases [8] = target: T8, panel of 442 kinases (Homo sapiens, UniProt Q13164)
T8 construct: purchased KINOMEscan
Excerpt: as §1

panel of 442 kinases [9] = target: T9, panel of 442 kinases (Homo sapiens, UniProt Q16566)
T9 construct: purchased KINOMEscan
Excerpt: as §1

panel of 442 kinases [10] = target: T10, panel of 442 kinases (Homo sapiens, UniProt Q00526)
T10 construct: purchased KINOMEscan
Excerpt: as §1

panel of 442 kinases [11] = target: T11, panel of 442 kinases (Homo sapiens, UniProt P08631)
T11 construct: purchased KINOMEscan
Excerpt: as §1

panel of 442 kinases [12] = target: T12, panel of 442 kinases (Homo sapiens, UniProt O94921)
T12 construct: purchased KINOMEscan
Excerpt: as §1

panel of 442 kinases [13] = target: T13, panel of 442 kinases (Homo sapiens, UniProt Q9Y2H1)
T13 construct: purchased KINOMEscan
Excerpt: as §1

panel of 442 kinases [14] = target: T14, panel of 442 kinases (Homo sapiens, UniProt Q8N752)
T14 construct: purchased KINOMEscan
Excerpt: as §1

panel of 442 kinases [15] = target: T15, panel of 442 kinases (Homo sapiens, UniProt Q16584)
T15 construct: purchased KINOMEscan
Excerpt: as §1

panel of 442 kinases [16] = target: T16, panel of 442 kinases (Homo sapiens, UniProt Q13523)
T16 construct: purchased KINOMEscan
Excerpt: as §1

panel of 442 kinases [17] = target: T17, panel of 442 kinases (Homo sapiens, UniProt P57058)
T17 construct: purchased KINOMEscan
Excerpt: as §1

panel of 442 kinases [18] = target: T18, panel of 442 kinases (Homo sapiens, UniProt Q8IVH8)
T18 construct: purchased KINOMEscan
Excerpt: as §1

panel of 442 kinases [19] = target: T19, panel of 442 kinases (Homo sapiens, UniProt P14616)
T19 construct: purchased KINOMEscan
Excerpt: as §1

panel of 442 kinases [20] = target: T20, panel of 442 kinases (Homo sapiens, UniProt P53671)
T20 construct: purchased KINOMEscan
Excerpt: as §1

panel of 442 kinases [21] = target: T21, panel of 442 kinases (Homo sapiens, UniProt Q9Y2U5)
T21 construct: purchased KINOMEscan
Excerpt: as §1

panel of 442 kinases [22] = target: T22, panel of 442 kinases (Homo sapiens, UniProt P00519, Y253F)
T22 construct: purchased KINOMEscan
Excerpt: as §1

panel of 442 kinases [23] = target: T23, panel of 442 kinases (Homo sapiens, UniProt Q13873)
T23 construct: purchased KINOMEscan
Excerpt: as §1

panel of 442 kinases [24] = target: T24, panel of 442 kinases (Homo sapiens, UniProt Q99683)
T24 construct: purchased KINOMEscan
Excerpt: as §1

panel of 442 kinases [25] = target: T25, panel of 442 kinases (Homo sapiens, UniProt P17612)
T25 construct: purchased KINOMEscan
Excerpt: as §1

panel of 442 kinases [26] = target: T26, panel of 442 kinases (Homo sapiens, UniProt P42679)
T26 construct: purchased KINOMEscan
Excerpt: as §1

panel of 442 kinases [27] = target: T27, panel of 442 kinases (Homo sapiens, UniProt P16234)
T27 construct: purchased KINOMEscan
Excerpt: as §1

panel of 442 kinases [28] = target: T28, panel of 442 kinases (Homo sapiens, UniProt P10721, D816H)
T28 construct: purchased KINOMEscan
Excerpt: as §1

panel of 442 kinases [29] = target: T29, panel of 442 kinases (Homo sapiens, UniProt O43283)
T29 construct: purchased KINOMEscan
Excerpt: as §1

panel of 442 kinases [30] = target: T30, panel of 442 kinases (Homo sapiens, UniProt P53778)
T30 construct: purchased KINOMEscan
Excerpt: as §1

panel of 442 kinases [31] = target: T31, panel of 442 kinases (Homo sapiens, UniProt Q04912)
T31 construct: purchased KINOMEscan
Excerpt: as §1

panel of 442 kinases [32] = target: T32, panel of 442 kinases (Homo sapiens, UniProt Q99755)
T32 construct: purchased KINOMEscan
Excerpt: as §1

panel of 442 kinases [33] = target: T33, panel of 442 kinases (Homo sapiens, UniProt P08069)
T33 construct: purchased KINOMEscan
Excerpt: as §1

panel of 442 kinases [34] = target: T34, panel of 442 kinases (Homo sapiens, UniProt P51957)
T34 construct: purchased KINOMEscan
Excerpt: as §1

panel of 442 kinases [35] = target: T35, panel of 442 kinases (Homo sapiens, UniProt Q6DT37)
T35 construct: purchased KINOMEscan
Excerpt: as §1

panel of 442 kinases [36] = target: T36, panel of 442 kinases (Homo sapiens, UniProt P68400)
T36 construct: purchased KINOMEscan
Excerpt: as §1

panel of 442 kinases [37] = target: T37, panel of 442 kinases (Homo sapiens, UniProt P10721, D816V)
T37 construct: purchased KINOMEscan
Excerpt: as §1

panel of 442 kinases [38] = target: T38, panel of 442 kinases (Homo sapiens, UniProt P15056)
T38 construct: purchased KINOMEscan
Excerpt: as §1

panel of 442 kinases [39] = target: T39, panel of 442 kinases (Homo sapiens, UniProt Q96GD4)
T39 construct: purchased KINOMEscan
Excerpt: as §1

panel of 442 kinases [40] = target: T40, panel of 442 kinases (Homo sapiens, UniProt P00519, T315I)
T40 construct: purchased KINOMEscan
Excerpt: as §1

panel of 442 kinases [41] = target: T41, panel of 442 kinases (Homo sapiens, UniProt Q08881)
T41 construct: purchased KINOMEscan
Excerpt: as §1

panel of 442 kinases [42] = target: T42, panel of 442 kinases (Homo sapiens, UniProt P42684)
T42 construct: purchased KINOMEscan
Excerpt: as §1

SMILES: COc1cc(C(=O)N2CCC(N3CCN(C)CC3)CC2)ccc1Nc1ncc2c(n1)N1CCc3cccc(c31)C(=O)N2C [Compound 24]
- KINOMEscan: FLT3 (panel of 442 kinases [1]): 100
- KINOMEscan: CDK7 (panel of 442 kinases [2]): 100
- KINOMEscan: LRRK2 (panel of 442 kinases [3]): 20
- KINOMEscan: DDR2 (panel of 442 kinases [4]): 100
- KINOMEscan: FLT3(D835H) (panel of 442 kinases [5]): 94
- KINOMEscan: GSK3A (panel of 442 kinases [6]): 100
- KINOMEscan: MARK3 (panel of 442 kinases [7]): 100
- KINOMEscan: ERK5 (panel of 442 kinases [8]): 0.1
- KINOMEscan: CAMK4 (panel of 442 kinases [9]): 100
- KINOMEscan: CDK3 (panel of 442 kinases [10]): 100
- KINOMEscan: HCK (panel of 442 kinases [11]): 100
- KINOMEscan: PFTK1 (panel of 442 kinases [12]): 100
- KINOMEscan: NDR2 (panel of 442 kinases [13]): 100
- KINOMEscan: CSNK1A1L (panel of 442 kinases [14]): 100
- KINOMEscan: MLK3 (panel of 442 kinases [15]): 92
- KINOMEscan: PRP4 (panel of 442 kinases [16]): 95
- KINOMEscan: HUNK (panel of 442 kinases [17]): 97
- KINOMEscan: MAP4K3 (panel of 442 kinases [18]): 100
- KINOMEscan: INSRR (panel of 442 kinases [19]): 97
- KINOMEscan: LIMK2 (panel of 442 kinases [20]): 100
- KINOMEscan: MAP3K2 (panel of 442 kinases [21]): 100
- KINOMEscan: ABL1(Y253F)-phosphorylated (panel of 442 kinases [22]): 79
- KINOMEscan: BMPR2 (panel of 442 kinases [23]): 100
- KINOMEscan: ASK1 (panel of 442 kinases [24]): 100
- KINOMEscan: PKAC-alpha (panel of 442 kinases [25]): 91
- KINOMEscan: CTK (panel of 442 kinases [26]): 100
- KINOMEscan: PDGFRA (panel of 442 kinases [27]): 100
- KINOMEscan: KIT(D816H) (panel of 442 kinases [28]): 100
- KINOMEscan: LZK (panel of 442 kinases [29]): 100
- KINOMEscan: p38-gamma (panel of 442 kinases [30]): 61
- KINOMEscan: MST1R (panel of 442 kinases [31]): 100
- KINOMEscan: PIP5K1A (panel of 442 kinases [32]): 100
- KINOMEscan: IGF1R (panel of 442 kinases [33]): 87
- KINOMEscan: NEK4 (panel of 442 kinases [34]): 100
- KINOMEscan: DMPK2 (panel of 442 kinases [35]): 100
- KINOMEscan: CSNK2A1 (panel of 442 kinases [36]): 75
- KINOMEscan: KIT(D816V) (panel of 442 kinases [37]): 71
- KINOMEscan: BRAF (panel of 442 kinases [38]): 100
- KINOMEscan: AURKB (panel of 442 kinases [39]): 79
- KINOMEscan: ABL1(T315I)-nonphosphorylated (panel of 442 kinases [40]): 100
- KINOMEscan: ITK (panel of 442 kinases [41]): 100
- KINOMEscan: ABL2 (panel of 442 kinases [42]): 100

Source: article PMC3914206
